Experimental data taken from patent publication US20260384426A1, “HETEROCYCLIC GLP-1 AGONISTS” (published 2026).

Amino acid sequences for entries named in this document (tags omitted). Residues count along the entry.
UniProt P43220, 24-463 limits assumed: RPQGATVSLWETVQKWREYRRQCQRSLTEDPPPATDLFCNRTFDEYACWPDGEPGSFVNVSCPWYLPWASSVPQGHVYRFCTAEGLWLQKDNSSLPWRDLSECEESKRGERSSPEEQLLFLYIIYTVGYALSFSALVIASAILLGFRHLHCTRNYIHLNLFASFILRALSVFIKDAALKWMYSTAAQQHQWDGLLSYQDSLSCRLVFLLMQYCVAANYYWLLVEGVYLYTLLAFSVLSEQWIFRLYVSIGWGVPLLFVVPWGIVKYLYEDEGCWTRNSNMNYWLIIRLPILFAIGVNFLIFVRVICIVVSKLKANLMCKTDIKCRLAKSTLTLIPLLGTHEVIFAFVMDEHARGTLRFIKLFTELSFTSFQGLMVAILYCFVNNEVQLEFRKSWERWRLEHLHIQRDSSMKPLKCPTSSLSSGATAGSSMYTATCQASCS

Molecular target: GLP-1 Receptor (Homo sapiens, UniProt P43220)
Assay: GLP-1R agonist cAMP stimulation assay in HEK293/GLP1R/CRE-LUC cells
Details: read-out: EC50 (GLP-1R agonist cAMP stimulation assay); HEK293/CRE-Luc cells stably expressing GLP-1 receptor; 37 °C, 30 min; 0.5 mM IBMX, 0.1% BSA; cAMP dynamic 2 Kit (Cisbio)
Method: Activation of GLP-1 receptor is known to stimulate cyclic AMP (cAMP) production in cells which indicates primary coupling to the G as subunit of the G protein heterotrimeric complex.
To optimize functional activity directed toward G as coupling, a HEK293/CRE-Luc cell line developed by HDB stably expressing the GLP-1 Receptor was used. 200× concentration of compound working solutions were prepared (Agilent Technologies Bravo) with 1/2 log serial dilution in 384-well Echo LDV plate (Labcyte, Cat #LP-0200). 50 nL/well 200× concentration of compound working solutions were moved to 384-well white low volume plate (Greiner, Cat #784075) using Labcyte ECHO550.1×10^5 cells/mL HEK293/GLP1R/CRE-LUC (HD Biosciences) cell suspensions prepared with assay buffer [DPBS containing 0.5 mM IBMX (Sigma, Cat #I5879) and 0.1% BSA (GENVIEW, Cat #FA016-100g)], 10 μL cell suspensions were added to each well of previous generated assay plate which already contains 50 nL compound at 200× concentration using ThermoFisher Multidrop Combi (1000 cells/well). The plate was sealed and incubated at 37 °C with 5% CO2 for 30 min.
After incubation the cAMP assay signal was generated using cAMP dynamic 2 Kit (Cisbio). 5 μL cAMP-d2 working solution was added to each well, followed with 5 μL Anti-cAMP antibody-cryptate working solution added to each well using ThermoFisher Multidrop Combi. Incubate at room temperature for 1 hour protected from light. Read the fluorescence at 665 and 615 nm with Reader PerkinElmer EnVision.
% Activity=100%×(mean RLU of test sample−mean RLU of vehicle control)/(mean RLU of MAX control−mean RLU of vehicle control)

| EC50 | Structure (SMILES) |
| --- | --- |
| 17 nM | Cc1cc(-n2c(N3CC(c4ccc(S(=O)(=O)C5CC5)cc4)C3)nc3c(c2=O)CCN(C(=O)c2cc4cc(C5CCOCC5)ccc4n2[C@@]2(c4noc(=O)[nH]4)C[C@@H]2C)[C@H]3C)cc(C)c1F |
| 140 nM | COc1ccc(CN2CCN(c3nc4c(c(=O)n3-c3cc(C)c(F)c(C)c3)CCN(C(=O)c3cc5cc(C6CCOCC6)ccc5n3[C@@]3(c5noc(=O)[nH]5)C[C@@H]3C)[C@H]4C)C2=O)cc1 |
| 410 nM | Cc1cc(-n2c(N3CCC(c4ccccc4)CC3)nc3c(c2=O)CCN(C(=O)c2cc4cc(C5CCOCC5)ccc4n2[C@@]2(c4noc(=O)[nH]4)C[C@@H]2C)C3)cc(C)c1F |
| 38 nM | C[C@H]1c2nc(N3CCN(Cc4ccccc4)C3=O)n(-c3ccccc3)c(=O)c2CCN1C(=O)c1cc2cc(C3CCOCC3)ccc2n1[C@@]1(c2noc(=O)[nH]2)C[C@@H]1C |
| 12 nM | Cc1cc(-n2c(N3CCN(Cc4ccccc4)C3=O)nc3c(c2=O)CCN(C(=O)c2cc4cc(C5CCOCC5)ccc4n2[C@@]2(c4noc(=O)[nH]4)C[C@@H]2C)[C@H]3C)cc(C)c1F |
| 280 nM | Cc1cc(-n2c(N3CCC(c4ccccc4)C3)nc3c(c2=O)CCN(C(=O)c2cc4cc(C5CCOCC5)ccc4n2[C@@]2(c4noc(=O)[nH]4)C[C@@H]2C)C3)cc(C)c1F (stereo partly shown) |
| 72 nM | Cc1cc(-n2c(NC(=O)OCc3ccccc3)nc3c(c2=O)CCN(C(=O)c2cc4cc(C5CCOCC5)ccc4n2[C@@]2(c4noc(=O)[nH]4)C[C@@H]2C)[C@H]3C)cc(C)c1F |
| 25 nM | Cc1cc(-n2c(N3CC(c4cccc(S(C)(=O)=O)c4)C3)nc3c(c2=O)CCN(C(=O)c2cc4cc(C5CCOCC5)ccc4n2[C@@]2(c4noc(=O)[nH]4)C[C@@H]2C)[C@H]3C)cc(C)c1F |
| 13 nM | Cc1cc(-n2c(NCCc3ccc(S(=O)(=O)C4CC4)cc3)nc3c(c2=O)CCN(C(=O)c2cc4cc(C5CCOCC5)ccc4n2[C@@]2(c4noc(=O)[nH]4)C[C@@H]2C)[C@H]3C)cc(C)c1F |
| 79 nM | Cc1cc(-n2c(N3CC(c4ccccc4)C3)nc3c(c2=O)CCN(C(=O)c2cc4cc(C5CCOCC5)ccc4n2[C@@]2(c4noc(=O)[nH]4)C[C@@H]2C)[C@H]3C)cc(C)c1F |
| 240 nM | Cc1cc(-n2c(N3CCN(Cc4ccc(S(=O)(=O)C5CC5)cc4)C3=O)nc3c(c2=O)CCN(C(=O)c2cc4cc(C5CCOCC5)ccc4n2[C@@]2(c4noc(=O)[nH]4)C[C@@H]2C)[C@H]3C)cc(C)c1F |
| 10 nM | Cc1cc(-n2c(N3CCN(c4ccccc4)C3=O)nc3c(c2=O)CCN(C(=O)c2cc4cc(C5CCOCC5)ccc4n2[C@@]2(c4noc(=O)[nH]4)C[C@@H]2C)[C@H]3C)cc(C)c1F |
| 170 nM | Cc1cc(-n2c(NCCc3ccc4c(cnn4C)c3)nc3c(c2=O)CCN(C(=O)c2cc4cc(C5CCOCC5)ccc4n2[C@@]2(c4noc(=O)[nH]4)C[C@@H]2C)C3)cc(C)c1F |
| 140 nM | COc1cccc(CN2CCN(c3nc4c(c(=O)n3-c3cc(C)c(F)c(C)c3)CCN(C(=O)c3cc5cc(C6CCOCC6)ccc5n3[C@@]3(c5noc(=O)[nH]5)C[C@@H]3C)[C@H]4C)C2=O)c1 |
| 69 nM | Cc1cc(-n2c(OCCc3ccc(S(=O)(=O)C4CC4)cc3)nc3c(c2=O)CCN(C(=O)c2cc4cc(C5CCOCC5)ccc4n2[C@@]2(c4noc(=O)[nH]4)C[C@@H]2C)[C@H]3C)cc(C)c1F |
| 72 nM | Cc1cc(-n2c(N3CCN(C(C)c4ccccc4)C3=O)nc3c(c2=O)CCN(C(=O)c2cc4cc(C5CCOCC5)ccc4n2[C@@]2(c4noc(=O)[nH]4)C[C@@H]2C)[C@H]3C)cc(C)c1F (stereo partly shown) |
| 190 nM | Cc1cc(-n2c(N3CC(c4ccc5c(cnn5C)c4)C3)nc3c(c2=O)CCN(C(=O)c2cc4cc(C5CCOCC5)ccc4n2[C@@]2(c4noc(=O)[nH]4)C[C@@H]2C)C3)cc(C)c1F |

Second part, the compound before the results:

| Structure (SMILES) | EC50 |
| --- | --- |
| C[C@H]1C[C@]1(c1noc(=O)[nH]1)n1c(C(=O)N2CCc3c(nc(N4CCN(c5ccccc5)C4=O)n(-c4ccccc4)c3=O)C2)cc2cc(C3CCOCC3)ccc21 | 34 nM |
| C[C@H]1C[C@]1(c1noc(=O)[nH]1)n1c(C(=O)N2CCc3c(nc(N4CCN(c5ccccc5)C4=O)n(-c4cccc(C(=O)O)c4)c3=O)C2)cc2cc(C3CCOCC3)ccc21 | 780 nM |
| Cc1cc(-n2c(N3CCN(c4ccccc4)C3=O)nc3c(c2=O)CCN(C(=O)c2cc4cc(C5CCOCC5)ccc4n2Cc2cnccn2)C3)cc(C)c1F | 350 nM |
| Cc1cc(-n2c(N3CCN(c4ccccc4)C3=O)nc3c(c2=O)CCN(C(=O)c2cc4cc(C5CCOCC5)ccc4n2C2(c4nc(=O)o[nH]4)CC2)C3)cc(C)c1F | 110 nM |
| C[C@H]1C[C@]1(c1noc(=O)[nH]1)n1c(C(=O)N2CCc3c(nc(N4CCN(c5ccccc5)C4=O)n(-c4ccccc4CC(=O)O)c3=O)C2)cc2cc(C3CCOCC3)ccc21 | 140 nM |
| C[C@H]1C[C@]1(c1noc(=O)[nH]1)n1c(C(=O)N2CCc3c(nc(N4CCN(c5ccccc5)C4=O)n(-c4ccccc4C(=O)O)c3=O)C2)cc2cc(C3CCOCC3)ccc21 | 280 nM |
| COCc1ccccc1-n1c(N2CCN(c3ccccc3)C2=O)nc2c(c1=O)CCN(C(=O)c1cc3cc(C4CCOCC4)ccc3n1[C@@]1(c3noc(=O)[nH]3)C[C@@H]1C)C2 | 33 nM |
| COCc1cccc(-n2c(N3CCN(c4ccccc4)C3=O)nc3c(c2=O)CCN(C(=O)c2cc4cc(C5CCOCC5)ccc4n2[C@@]2(c4noc(=O)[nH]4)C[C@@H]2C)C3)c1 | 49 nM |
| C[C@H]1C[C@]1(c1noc(=O)[nH]1)n1c(C(=O)N2CCc3c(nc(N4CCN(c5ccccc5)C4=O)n(-c4cccc(CC(=O)O)c4)c3=O)C2)cc2cc(C3CCOCC3)ccc21 | 330 nM |
| Cc1nnc(Cn2c(C(=O)N3CCc4c(nc(N5CCN(c6ccccc6)C5=O)n(-c5cc(C)c(F)c(C)c5)c4=O)C3)cc3cc(C4CCOCC4)ccc32)o1 | 900 nM |
| Cc1cc(-n2c(NCCc3ccccc3)nc3c(c2=O)CCN(C(=O)c2cc4cc(C5CCOCC5)ccc4n2C2(c4noc(=O)[nH]4)CC2)C3)cc(C)c1F | 280 nM |
